Like-named read-outs stand apart in the source and are kept apart here.

The conditions of series [1]: wild-type tumor group.
In series [2] the test system is phosphorylated-ERK1/2 (pERK) in LN229-wild-type EGFR tumors. Details: species or system athymic swiss mice (nu/nu). The following applies: mouse, in vivo.
The conditions of series [3]: vIII mutant tumor group.
Series [4] has as its system phosphorylated-ERK1/2 (pERK) in LN229-EGFRvIII mutant tumors. On the set-up: species or system athymic swiss mice (nu/nu). The conditions noted are these: mouse, in vivo.
Setting [5] is: 55 mg/kg/d PO × 15 days, mean (% CV).
The mark [6] stands for this setting: 30 mg/kg/d PO × 15 days, mean (% CV).

As for `COc1cc2ncnc(Nc3ccc(F)c(Cl)c3)c2cc1OCCCN1CCOCC1` [gefitinib, Gefitinib], in series [1], the “difference in observed plasma and tumor area under the concentration-time curves between Day 1 and Day 15” value is recorded as “less than 16%”. In addition, in series [1] (setting [5]), the “K(12) inter-compartmental rate constant” value was 1.65 (6.7) h^−1 and the “K(21) inter-compartmental rate constant” value is listed as 0.55 (6.3) h^−1. Besides, in series [2], the “Kout(0) (baseline rate constant for degradation and dephosphorylation of pERK)” value is given as 6.4 (7.3) h^−1; the “Ktr (rate constant from pEGFR to pERK compartment)” value is listed as 2.2 (20.0) h^−1; the “r (arbitrary constant for reduction of Kout)” value was 0.0006 (30.5). In series [3], the “difference in observed plasma and tumor area under the concentration-time curves between Day 1 and Day 15” value is listed as “less than 16%”. Also, in series [3] (setting [6]), the “K(12) inter-compartmental rate constant” value is 0.74 (8.3) h^−1 and the “K(21) inter-compartmental rate constant” value is listed as 0.50 (7.2) h^−1. For the same molecule, in series [4], the “Kout(0) (baseline rate constant for degradation and dephosphorylation of pERK)” value is on record as 6.7 (9.6) h^−1; the “Ktr (rate constant from pEGFR to pERK compartment)” value is listed as 1.4 (24.7) h^−1; the “r (arbitrary constant for reduction of Kout)” value was 0.0005 (42.8).

The values above are taken from article PMC2862725 (Molecular cancer therapeutics, 2009).
